The results in this text go back to ChEMBL document CHEMBL4819147, “Design, synthesis and biological evaluation of novel molecules as potent PARP-1 inhibitors” (Bioorg Med Chem Lett, 2021).

Amino acid sequences for entries named in this document (tags omitted).
UniProt P09874, whole entry: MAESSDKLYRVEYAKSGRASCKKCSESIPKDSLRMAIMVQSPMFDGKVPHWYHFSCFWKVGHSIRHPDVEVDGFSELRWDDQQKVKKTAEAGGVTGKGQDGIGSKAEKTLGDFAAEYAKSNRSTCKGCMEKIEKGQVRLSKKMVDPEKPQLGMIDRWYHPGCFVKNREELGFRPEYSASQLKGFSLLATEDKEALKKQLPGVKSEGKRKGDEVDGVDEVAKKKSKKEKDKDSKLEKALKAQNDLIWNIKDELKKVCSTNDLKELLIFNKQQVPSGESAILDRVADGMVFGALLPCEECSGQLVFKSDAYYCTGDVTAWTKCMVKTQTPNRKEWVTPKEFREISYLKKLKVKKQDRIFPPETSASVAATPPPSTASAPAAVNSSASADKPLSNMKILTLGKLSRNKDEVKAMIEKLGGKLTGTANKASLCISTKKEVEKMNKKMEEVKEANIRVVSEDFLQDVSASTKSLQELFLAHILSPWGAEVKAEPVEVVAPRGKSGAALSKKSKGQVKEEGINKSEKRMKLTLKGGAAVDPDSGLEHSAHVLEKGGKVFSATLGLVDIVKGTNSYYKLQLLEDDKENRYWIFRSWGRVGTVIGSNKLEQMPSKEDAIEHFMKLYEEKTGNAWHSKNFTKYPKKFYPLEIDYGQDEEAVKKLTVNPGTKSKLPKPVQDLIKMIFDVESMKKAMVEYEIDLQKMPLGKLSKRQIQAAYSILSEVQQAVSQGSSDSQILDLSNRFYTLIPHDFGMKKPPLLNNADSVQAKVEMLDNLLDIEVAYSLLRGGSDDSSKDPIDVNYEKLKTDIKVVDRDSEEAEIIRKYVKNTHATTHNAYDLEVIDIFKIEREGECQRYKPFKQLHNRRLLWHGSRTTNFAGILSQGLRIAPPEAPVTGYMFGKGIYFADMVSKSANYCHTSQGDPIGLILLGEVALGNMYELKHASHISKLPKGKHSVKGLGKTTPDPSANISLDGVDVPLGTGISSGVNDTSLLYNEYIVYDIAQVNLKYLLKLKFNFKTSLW

For this assay, the target named is Poly [ADP-ribose] polymerase 1 (Homo sapiens, UniProt P09874). Description: Potency index, ratio of olaparib IC50 to test compound IC50 for inhibition of PARP1 (unknown origin).

With `NC(=O)c1cncc2[nH]c(C3CCN(C(=O)c4cc(Cc5n[nH]c(=O)c6ccccc56)ccc4F)CC3)nc12`, the Ratio IC50 was 4.
